{"source": "patent US12172993B2", "about": "(priority 2018, dated 2024)", "key": {"[1]": {"experiment": "human liver microsomal stability"}, "[2]": {"experiment": "mouse liver microsomal stability"}, "[3]": {"conditions": "male CD1 mice"}}, "note": "Read-outs that look alike come from different tables or passages of the source.", "data": [{"smiles": "Cc1nc(Nc2ncc(C(=O)Nc3c(C)csc3Cl)s2)cc(N2CCN(CCO)CC2)n1", "note": "[Compound C7, N-(2-chloro-4-methylthiophen-3-yl)-2-((6-(4-(2-hydroxyethyl)piperazin-1-yl)-2-methylpyrimidin-4-yl)amino)thiazole-5-carboxamide]", "values": [{"measurement": "Half-life", "setting": "[1]", "value": 5, "unit": "min"}, {"measurement": "Half-life", "setting": "[2]", "value": 12, "unit": "min"}, {"measurement": "t1/2", "setting": "[3]; 1 mg/kg iv", "value": 72, "unit": "min"}, {"measurement": "t1/2", "setting": "[3]; 30 mg/kg po", "value": 198, "unit": "min"}]}]}
